Consider six compounds from PubChem BioAssay AID529 (NMMLSC, 2006).

By UniProt entry, the sequences of proteins in these tests, tags left out.
UniProt P13612, whole entry, looked up: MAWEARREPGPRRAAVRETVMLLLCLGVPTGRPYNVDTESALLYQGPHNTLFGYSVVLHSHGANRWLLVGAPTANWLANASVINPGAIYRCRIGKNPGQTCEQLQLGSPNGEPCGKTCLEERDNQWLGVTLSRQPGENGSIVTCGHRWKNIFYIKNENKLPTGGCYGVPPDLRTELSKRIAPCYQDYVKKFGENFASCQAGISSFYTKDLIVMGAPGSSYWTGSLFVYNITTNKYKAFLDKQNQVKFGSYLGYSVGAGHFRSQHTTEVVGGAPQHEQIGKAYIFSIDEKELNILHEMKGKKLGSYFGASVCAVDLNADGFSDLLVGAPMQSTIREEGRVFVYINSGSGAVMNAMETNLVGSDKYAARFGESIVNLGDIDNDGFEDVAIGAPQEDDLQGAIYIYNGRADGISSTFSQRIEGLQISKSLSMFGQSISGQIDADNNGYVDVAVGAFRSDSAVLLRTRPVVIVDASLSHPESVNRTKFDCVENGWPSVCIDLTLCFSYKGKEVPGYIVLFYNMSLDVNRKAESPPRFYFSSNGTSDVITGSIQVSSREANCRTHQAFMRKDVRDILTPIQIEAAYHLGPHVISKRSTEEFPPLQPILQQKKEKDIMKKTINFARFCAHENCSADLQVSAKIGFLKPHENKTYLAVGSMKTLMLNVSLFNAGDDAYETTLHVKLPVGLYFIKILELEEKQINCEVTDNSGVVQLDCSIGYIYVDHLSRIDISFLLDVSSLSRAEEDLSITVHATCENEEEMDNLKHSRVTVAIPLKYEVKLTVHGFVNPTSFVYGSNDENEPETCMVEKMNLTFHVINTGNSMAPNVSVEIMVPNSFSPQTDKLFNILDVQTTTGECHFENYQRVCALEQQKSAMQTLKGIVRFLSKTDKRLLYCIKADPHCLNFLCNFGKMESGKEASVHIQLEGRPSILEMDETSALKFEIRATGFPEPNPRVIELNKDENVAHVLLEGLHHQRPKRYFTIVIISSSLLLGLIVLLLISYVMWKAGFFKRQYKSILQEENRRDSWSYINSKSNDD

One may read the inhibition as the drop in the measured response relative to a control, in per cent.

SMILES strings stand for the structures. The list shows a part of the results, in another mix than the full data. Inconclusive results are not listed. Activity calls are given as the source filed them.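 Rule for the calls: active = inhibition above 50%; inconclusive = compound itself fluorescent, judged against control cell fluorescence; inactive = the rest.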

This assay addresses Integrin alpha-4 (Homo sapiens) (UniProt P13612). Put plainly: inhibitors of LDV-FITC binding to Mn2+-activated VLA-4, primary screen, Jurkat cells (AID 529).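 Note: 0% = Mn2+ stimulated cells lacking compound and 100% = ligand binding without Mn2+.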 Particulars: LDV-FITC binding with Mn2+, flow cytometry, hits give high values, screened at 10 µM (by protocol), 100% = Mn2+-driven binding gain fully reversed. (In general: Flow cytometry measures light scatter and fluorescence of single cells or particles in a stream.)
In the case of `O=P(Nc1nccs1)(c1ccccc1)c1ccccc1`, the inhibition was inactive: 2%. For `Cc1nn(-c2ccccc2)c2c1P(=O)(N1CCOCC1)N(C)C(c1ccccc1)=N2` (stereo unspecified), the inhibition was inactive: -9.5%. To `Clc1n[nH]nc1-c1nn[nH][15n]1` belongs inactive: 1%. To `CCOP1(=S)c2c(C)nn(CCC#N)c2N=C(c2ccccc2F)N1C` (stereo unspecified) belongs inactive: -12%. As to `COP1(=S)c2c(C)nn(CCC#N)c2N=C(c2ccc(F)cc2)N1C` (stereo unspecified), the inhibition is inactive: 3%. The figure for `O=C(COc1ccccc1)OC1CN2CCC1CC2` (stereo unspecified) is inactive: 4%.
